# Source: PubChem (Broad Institute)
# Rows were chosen to be rich in hits. Some 1.6% of all compounds tested hit in one or more screens of this group.
# CAL PDZ FP-1 = CAL PDZ (human) peptide binding inhibition; Q9HD26; purified CAL PDZ, TMR-peptide fluorescence polarization, 1 h; inhibition, % at 24.9 µM; actives 0.92% (n = 300,000); AID 602252;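 active = mean inhibition of at least 30% with at least half of replicates also reaching 30%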;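 note: 0% = DMSO neutral control and 100% = excess unlabeled competitor peptide PRC23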
# UUG fidelity = modulators of start codon recognition fidelity in yeast; AID 602363; activity score, % at 18.7 µM; S. cerevisiae UUG-firefly luciferase reporter, luminescence/redox ratio; 0.13% of 350,000 active;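 active = replicate mean at a twofold rise or more, about +100% in these data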;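 note: firefly luciferase made from a UUG start codon reports start codon fidelity; reporter light over untreated wells divided by growth signal over untreated wells; some hits fall short of that in this replicate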
# Vif inh = HIV Vif inhibition | actives 0.35% (n = 340,000) | inhibition, % at 7.49 µM | HEK293T cells, Vif self-association by quenched fluorescence, imaging, 24 h; in the data active = inhibition above about 50%, passing the limit was not always enough
# PglD DTNB = PglD (C. jejuni) enzyme inhibition. inhibition, % at 12.5 µM. purified PglD enzyme, DTNB colorimetric CoA detection. actives 0.098% (n = 360,000). AID 602405; in the data active = inhibition above about 16%, passing the limit was not always enough
# ARNT-TACC3 inh = disruptors of human ARNT/TACC3 interaction | AlphaScreen His-ARNT PAS-B/GST-TACC3 binding, luminescence; TACC3 fragment carries E629A point mutation | inhibition, % at 9.99 µM | actives 0.66% (n = 390,000) | AID 623870;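 active = mean inhibition of replicates at least 50% and at least half of replicates each reaching 50%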;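 note: 0% = complete ARNT plus TACC3 wells and 100% = ARNT alone without TACC3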
# CAL PDZ FP-2 = blocks peptide binding to human CAL PDZ domain; purified CAL PDZ, TMR-peptide fluorescence polarization, 1 h; inhibition, % at 20 µM; actives 0.02% (n = 330,000); AID 504414;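 active = highest replicate inhibition of at least 40%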;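 note: plate controls were DMSO neutral control wells for no effect and unlabeled competitor peptide control wells for full effect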
#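 Test system: tagged CAL PDZ domain / Buffer or medium: sodium phosphate/NaCl buffer pH 7.4 with TCEP, IgG, Thesit / Reagent: TMR-labelled reporter peptide T*-PRC34 bound in PDZ groove / Compound dosing: single point, 20 µM / Schedule: 1 h incubation at room temperature before polarization reading / Technique: fluorescence polarization (mP) / Benchmarks: unlabelled peptide, DMSO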
# Active calls of the source: *; x = no result given.
SMILES,CAL PDZ FP-1,UUG fidelity,Vif inh,PglD DTNB,ARNT-TACC3 inh,CAL PDZ FP-2
C[C@H]1CN([C@@H](C)CO)S(=O)(=O)c2ccc(-c3cccnc3)cc2O[C@@H]1CN(C)C(=O)NC1CCCC1,x,-6,x,2,1,x
CCC(C)Nc1nc(-c2ccccn2)nc2ccccc12 (stereo not drawn),-2,-30,-7,-15,62*,-1
CCC(C)Nc1nc(-c2cccc(OC)c2O)nc2ccccc12 (stereo not drawn),x,-13,x,-5,21,0
c1ccc(CNc2nc(-c3ccccn3)nc3ccccc23)cc1,-4,-14,-3,-2,70*,-3
C[C@@H]1CCCCO[C@H](CN(C)C(=O)Nc2ccccc2)[C@H](C)CN([C@H](C)CO)C(=O)c2cc(NC(=O)Nc3ccc(F)cc3)ccc2O1,x,-13,x,1,-2,x
COCC(=O)N(C)C[C@H]1Oc2ncc(C#CCC3CCCC3)cc2C(=O)N([C@@H](C)CO)C[C@H]1C,x,7,x,-2,6,x
C[C@@H]1CCCCO[C@H](CN(C)C)[C@@H](C)CN([C@H](C)CO)C(=O)c2cc(NS(=O)(=O)c3cn(C)cn3)ccc2O1,x,x,x,-1,0,x
CNc1nc(Nc2ccccc2)nc(OCC(F)(F)F)n1,0,1,1,-12,1,-1
CNc1nc(NN)nc(Nc2ccccc2)n1,58*,-27,2,-3,35,-2
CN(C)C(=O)[C@@H]1[C@@H](CO)[C@@H]2Cn3c(ccc(-c4ccncc4)c3=O)[C@@H]2N1Cc1ccccc1,x,x,x,-2,-5,x
Cc1ccc(S(=O)(=O)Nc2cccc3cccnc23)cc1,42*,-30,1,-1,50*,-1
COc1cc(NS(=O)(=O)c2ccc(C)cc2)c2ncccc2c1,-2,x,6,x,6,0
Cc1noc(C)c1NC(=O)Nc1ccc2c(c1)CC(=O)N([C@H](C)CO)C[C@@H](C)[C@@H](CN(C)C(=O)NC1CCCCC1)O2,x,-10,x,-3,1,x
Cc1nn(-c2ccccc2)c2nc(C(Cl)(Cl)Cl)[nH]c(=O)c12,59*,x,5,x,3,-1
COc1ccc(NC(=O)CSc2nc3sc(C)cc3c(=O)n2C)cc1,13,-33,-12,3,5,-2
COc1ccc(NC(=O)CSc2nc3sc(C)cc3c(=O)n2C)c(OC)c1,80*,11,-5,5,-2,-1
C[C@@H]1CN([C@H](C)CO)C(=O)c2cc(NC(=O)Cc3ccccc3)ccc2O[C@@H](C)CCCCO[C@H]1CN(C)S(C)(=O)=O,x,3,x,0,-1,x
CCCC(=O)Nc1ccc2c(c1)OC[C@@H](C)N(C(=O)c1ccccn1)C[C@@H](C)[C@@H](OC)CN(C)C2=O,x,5,x,-3,-19,x
C=CCNCCOCCOc1ccc(C)cc1Br,32*,14,-2,2,0,-1
NC(=O)C1=C(N=C2CCCCC2)CCCC1,-3,-16,65*,-1,-13,1
Cc1cccc(C(=O)NCc2ccc(S(N)(=O)=O)cc2)c1[N+](=O)[O-],46*,x,0,x,-1,0
COc1ccccc1CN(C)C[C@H]1OCc2cn(nn2)CCCC(=O)N([C@H](C)CO)C[C@H]1C,x,x,x,-1,2,x
CSc1sccc1/C=C(/C#N)C(=O)c1ccco1,5,-20,151*,-5,-7,-1
CSc1sccc1/C=N/O,-5,x,-8,x,-1,0
CN1CCN(C(=O)C[C@H]2CC[C@@H]3[C@H](COC[C@H](O)CN3C(=O)C3CC3)O2)CC1,x,x,x,5,-1,x
Cc1[nH]n(-c2cccc3ccccc23)c(=O)c1/C=N/NC(=O)c1cccc([N+](=O)[O-])c1,-9,-4,2,2,6,-3
CC(=O)N/N=C/c1c(C)[nH]n(-c2ccccc2)c1=O,-2,x,0,x,x,-1
Cc1cc(/C=N/NC(=O)c2ccccn2)c(C)n1-c1cccc([N+](=O)[O-])c1,0,x,21,x,68*,0
Cc1c(/C=N\NC(=O)C2COc3ccccc3O2)c2ccccc2n1C (stereo not drawn),-1,x,40,x,0,-2
Cc1[nH]n(-c2ccccc2)c(=O)c1/C=N\NC(=O)C1COc2ccccc2O1 (stereo not drawn),-7,x,4,x,61*,0

# An excerpt from above in order of SMILES length, falling.
SMILES,CAL PDZ FP-1,UUG fidelity,Vif inh,PglD DTNB,ARNT-TACC3 inh,CAL PDZ FP-2
Cc1[nH]n(-c2cccc3ccccc23)c(=O)c1/C=N/NC(=O)c1cccc([N+](=O)[O-])c1,-9,-4,2,2,6,-3
Cc1[nH]n(-c2ccccc2)c(=O)c1/C=N\NC(=O)C1COc2ccccc2O1 (stereo not drawn),-7,x,4,x,61*,0
CC(=O)N/N=C/c1c(C)[nH]n(-c2ccccc2)c1=O,-2,x,0,x,x,-1
